Values quoted from earlier work in patent US20240075049A1 (priority 2020, published 2024).

Settings: in both animals and humans; binds to or is absorbed by adipose tissue; cited from earlier work

Substance: ivermectin
- lipophilicity: highly lipophilic
